Assay results taken from article PMC7597670 (Bioorganic & medicinal chemistry letters, 2010).

Tested on: HIV envelope glycoprotein-mediated cell–cell fusion (CD4/CCR5)
Assay: cells
Details: Human immunodeficiency virus 1, CCR5, read-out: Fusion assay pIC50 (converted)

CCCCN1C(=O)[C@@H]([C@H](O)C2CCCCC2)NC(=O)C12CCN(Cc1ccc(Oc3ccccc3)cc1)CC2 [Compound 4]
IC50: 7.76 nM
